Laboratory results as given in patent publication US20250381110A1, “SKIN CARE COMPOSITION AND METHOD OF USING THE SAME” (THE PROCTER & GAMBLE COMPANY, priority 2024, published 2025).

Tested on: p62-dependent mitophagy
Test: Luciferase-p62 assay (Fluc-p62 clearance) in mouse embryonic fibroblasts
Assay type: cell-based
Conditions: MEFs, 10 μM

CC1=C2C[C@H]3[C@@H](CC=C4C[C@@H](O)CC[C@@]43C)[C@@H]2CC[C@]12O[C@@H]1C[C@H](C)CN[C@H]1[C@H]2C [Cyclopamine]
% Activity over baseline (percentage of Luciferase-p62 clearance relative to baseline (mean luminescence in the absence of doxycycline induction)): 70.83% | % Activity relative to Rapamycin (percentage of activity relative to rapamycin tested in the same experiment at the same concentration): 127.63%
